According to PubChem BioAssay AID493012 (Sanford-Burnham Center for Chemical Genomics, 2011):
The entries are a selection whose mix differs from that of the whole data set. The source made the active and inactive calls.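 The calls were made as follows: active = inhibition of at least 40% at 20 µM, with no more than 30% in the related APOBEC3A deaminase screen; inactive = the rest.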

Protein sequences, listed by entry. Tags and fused reporters are not part of them.
UniProt Q9HC16, whole entry: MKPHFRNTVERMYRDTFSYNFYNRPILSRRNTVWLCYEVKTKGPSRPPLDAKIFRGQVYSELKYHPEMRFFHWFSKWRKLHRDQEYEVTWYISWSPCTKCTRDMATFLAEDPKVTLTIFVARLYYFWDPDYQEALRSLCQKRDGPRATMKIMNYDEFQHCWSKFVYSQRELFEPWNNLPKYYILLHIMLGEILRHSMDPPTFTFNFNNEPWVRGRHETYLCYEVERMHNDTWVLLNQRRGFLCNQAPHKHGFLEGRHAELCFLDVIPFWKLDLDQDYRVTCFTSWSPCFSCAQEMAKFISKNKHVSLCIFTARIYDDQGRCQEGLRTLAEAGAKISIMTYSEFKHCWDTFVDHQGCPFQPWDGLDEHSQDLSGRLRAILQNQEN

Target: DNA dC->dU-editing enzyme APOBEC-3G (Homo sapiens) (UniProt Q9HC16)
Assay: inhibition of human A3G ssDNA deamination – biochemical, fluorescence, single-stranded DNA substrate, uHTS, primary screen (AID 493012);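 also: plate controls were DMSO wells with A3G for no effect and wells lacking A3G enzyme for full effect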
Conditions: recombinant A3G, ssDNA deamination FAM/TAMRA fluorescence; at 20 µM; active compounds read high

Row | Compound | inhibition
1 | O=C(NCC1(N2CCOCC2)CCCCC1)c1cc(F)c(F)cc1Cl | inactive: -3.23%
2 | COc1cc(OC)c(C(=O)NCC2(N(C)C)CCCCC2)cc1OC | inactive: -8.74%
3 | CN(C)c1cccc(C(=O)NCC2(N3CCCCC3)CCCCC2)c1 | inactive: 0.447%
4 | COc1ccc(CN(CCCl)CCCl)cc1Cl | inactive: -6.78%
5 | CC(C)c1ccc(NC2CCN(C(=O)OC(C)(C)C)CC2)cc1 | inactive: -10.6%
6 | CN1CCC(Nc2cccc(F)c2)CC1 | inactive: -4.48%
7 | O=C(NCC1(N2CCCCC2)CCCCC1)c1cncc(Br)c1 | inactive: 1.12%
8 | O=C(NCC1(N2CCCCC2)CCCCC1)c1cccc([N+](=O)[O-])c1 | inactive: -5.24%
9 | CSc1ccc(C(=O)NCC2(N3CCOCC3)CCCCC2)cc1 | inactive: -5.46%
10 | N#CC1(Nc2ccccc2)CCN(CCc2ccccc2)CC1 | inactive: -1.77%
11 | CCN1CCC(Nc2ccc(Cl)cc2)CC1 | inactive: -6.15%
12 | O=C(NCC1(N2CCCCC2)CCCCC1)c1ccc(OC(F)F)cc1 | inactive: -8.69%
13 | COc1ccc(NC2CCN(C(=O)OC(C)(C)C)CC2)cc1 | inactive: -2.86%
14 | CC(C)c1ccc(C(=O)NCC2(N3CCOCC3)CCCCC2)cc1 | inactive: 7.28%
15 | CN1CCN(CCOC(=O)C(O)(c2ccccc2)c2ccccc2)CC1 | inactive: -6.09%
16 | O=C(NCC1(N2CCOCC2)CCCCC1)c1cc(=O)[nH]c2ccccc12 | inactive: -9.34%
17 | COc1cc(C(=O)NCC2(N3CCCCC3)CCCCC2)ccc1OC(F)F | inactive: 0.265%
18 | O=C(NCC1(N2CCCCC2)CCCCC1)c1cccc(C(F)(F)F)c1 | inactive: -7.71%
19 | CCOC(=O)N1CCC(Nc2ccc(F)cc2)CC1 | inactive: 1.49%
20 | COc1ccc(NC2CCN(CCc3ccccc3)CC2)c(OC)c1 | inactive: -2.28%
21 | CCCCOc1ccc(C(=O)NCC2(N3CCOCC3)CCCCC2)cc1 | inactive: 6.46%
22 | O=C(NCC1(N2CCCCC2)CCCCC1)c1ccc(F)cc1 | inactive: -3.2%
23 | CCOc1ccc(C)cc1CN(CCCl)CCCl | inactive: -7.66%

Row | Compound | inhibition
24 | Cc1ccc(OCC(C)C)c(CN(CCCl)CCCl)c1 | inactive: -5.71%
25 | CCOC(=O)N1CCC(Nc2cccc(C)c2)CC1 | inactive: -5.2%
26 | CSc1ccccc1C(=O)NCC1(N2CCCCC2)CCCCC1 | inactive: -4.73%
27 | O=C(NCC1(N2CCCCC2)CCCCC1)c1cccs1 | inactive: -8.08%
28 | O=C(NCC1(N2CCCCC2)CCCCC1)c1ccc(=O)[nH]c1 | inactive: -2.41%
29 | COc1ccc(C(=O)NCC2(N3CCCCC3)CCCCC2)c(OC)c1OC | inactive: -6.02%
30 | CC(C)(C)OC(=O)N1CCC(N(C(=O)c2ccccc2)c2ccc(F)cc2)CC1 | inactive: -8.8%
31 | COc1ccc(C(=O)NCC2(N3CCCCC3)CCCCC2)cc1 | inactive: -3.94%
32 | CCOC(=O)N1CCC(Nc2ccc(OC)cc2)CC1 | inactive: -11.4%
33 | COc1ccc(Cl)cc1C(=O)NCC1(N2CCOCC2)CCCCC1 | inactive: -2.25%
34 | O=C(NCC1(N2CCCCC2)CCCCC1)c1ccc(Cl)s1 | inactive: -3.85%
35 | N#CC1(Nc2ccccc2)CCN(Cc2ccccc2)CC1 | inactive: -7.66%
36 | O=C(OC1CN2CCC1CC2)C1c2ccccc2Oc2ccccc21 (configuration not stated) | inactive: -8.53%
37 | O=C(NCC1(N2CCOCC2)CCCCC1)c1cc2ccccc2o1 | inactive: -5.17%
38 | Cc1cc(C)cc(N(C(=O)c2ccccc2)C2CCN(C(=O)OC(C)(C)C)CC2)c1 | inactive: -0.949%
39 | O=C(NCC1(N2CCCCC2)CCCCC1)c1ccc(Cl)nc1 | inactive: 6.46%
40 | CCCOc1ccc(C(=O)NCC2(N(C)C)CCCCC2)cc1 | inactive: -0.045%
41 | O=C(O)C1(Nc2ccccc2)CCN(Cc2ccccc2)CC1 | inactive: -7.19%
42 | CC(C)(C)OC(=O)N1CCC(Nc2ccccc2)CC1 | inactive: -7.17%
43 | CN1CCC(Nc2ccc(F)c(Cl)c2)CC1 | inactive: -1.6%
44 | CCOc1ncccc1C(=O)NCC1(N2CCOCC2)CCCCC1 | inactive: -0.965%
45 | CCCOc1ccc(C)cc1CN(CCCl)CCCl | inactive: -5.41%
46 | CN1CCC(Nc2ccc(Cl)cc2)CC1 | inactive: -7.28%

Row | Compound | inhibition
47 | CCC(CO)(C(=O)OC1CN2CCC1CC2)c1ccccc1 (configuration not stated) | inactive: 1.78%
48 | COc1cccc(C(=O)N(c2cc(C)cc(C)c2)C2CCN(C(=O)OC(C)(C)C)CC2)c1 | inactive: -1.04%
49 | COc1cc(OC)cc(C(=O)NCC2(N3CCOCC3)CCCCC2)c1 | inactive: -7.74%
50 | Fc1ccccc1NC1CCN(Cc2ccccc2)CC1 | inactive: -4.67%
51 | Cc1ccc(C(=O)NCC2(N3CCCCC3)CCCCC2)o1 | inactive: -2.31%
52 | COc1cc(OC)cc(C(=O)NCC2(N3CCCCC3)CCCCC2)c1 | inactive: 2.08%
53 | CN(C)c1ccc(C(=O)NCC2(N3CCCCC3)CCCCC2)cc1 | inactive: -5.97%
54 | O=C(NCC1(N2CCCCC2)CCCCC1)c1ccco1 | inactive: -8.06%
55 | CCN1CCC(Nc2cccc(F)c2)CC1 | inactive: -2.63%
56 | CC(C)(C)OC(=O)N1CCC(N(C(=O)c2ccccc2)c2ccc(Cl)cc2)CC1 | inactive: -8.16%
57 | N#Cc1ccc(C(=O)NCC2(N3CCCCC3)CCCCC2)cc1 | inactive: -1.69%
58 | CCCN1CCC(Nc2cc(OC)cc(OC)c2)CC1 | inactive: -0.318%
59 | c1ccc(CN2CCC(Nc3ccccc3)CC2)cc1 | inactive: -2.06%
60 | CN(C)C1(CNC(=O)c2cccc(C#N)c2)CCCCC1 | inactive: -1.96%
61 | COc1ccc(C(=O)NCC2(N3CCOCC3)CCCCC2)cc1OC | inactive: -5.85%
62 | O=C(NCC1(N2CCOCC2)CCCCC1)c1cc(Br)ccc1Cl | inactive: -8.09%
63 | COc1cc(C(=O)NCC2(N3CCOCC3)CCCCC2)cc(OC)c1C | inactive: -1.16%
64 | CCc1cc(C(=O)NCC2(N3CCCCC3)CCCCC2)sc1C | inactive: -9.42%
65 | O=C(OC1CN2CCC1CC2)C1c2ccccc2C=Cc2ccccc21 (configuration not stated) | inactive: -3.95%
66 | N/C(=N\O)c1c(N)no[n+]1[O-] | inactive: 12.8%
67 | CCOC(=O)N1CCC(Nc2ccc(C)cc2)CC1 | inactive: -8.39%
